Screening data from PubChem BioAssay.
LMNA splice mod – changes lamin A minigene splicing in HeLa cells; Potency, µM (doses to about 46.1 µM), without a hit: at the top dose ratio change, negative = inhibition, usual class: inhibitors; hit rate 0.01% among 200,000; HeLa LMNA splicing GFP/RFP minigene ratio, 48 h; active means well fitted inhibition curve with a large enough effect in the signal ratio, with a control signal flat, not every such curve was filed as active; inconclusive means small, poorly fitted or top-dose-only effect, or effect the other way, or a change in a side signal; the % refers to the signal ratio; further: potency means the concentration at half of the fitted maximal effect; on the % scale 0 is the no-effect control and ±100 the full control effect
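Read-out is the ratio of GFP to DsRed2 object intensity, acquired by 488 nm laser-scanning cytometry on HeLa lamin A-EGFP minigene reporter cells. Compound incubation 48 hrs at 37 °C in Opti-MEM with 2% FBS; DMSO 0.5% final.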
KDM4E inh – inhibitors of human JMJD2E histone demethylase; JMJD2E catalytic domain, FDH-coupled NADH fluorescence (FDH is formaldehyde dehydrogenase); hit rate 1.6% among 230,000; Potency, µM (doses to about 57.1 µM), without a hit: top-dose activity change, negative = inhibition, actives largely listed as inhibitors; active means well fitted inhibition curve with a large enough effect, not every such curve was filed as active; inconclusive means small, poorly fitted or top-dose-only effect, or another doubt; inactive means no such curve, though single readings can be large or run the other way;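 further: potency means the concentration at half of the fitted maximal effect; 0% = wells with enzyme and -100% = buffer wells without enzyme; nearly all actives have a fitted effect of over 50% in size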
G9a inh – blocks human histone lysine methyltransferase G9a | Q96KQ7 | G9a H3K9 monomethylation, AlphaScreen, 2 h | Potency, µM (top dose mostly 102 µM), without a hit: at the top dose activity, negative = inhibition, most hits filed as inhibitors | hit rate 8.8% among 350,000 | AID 504332; further: potency means the concentration at half of the fitted maximal effect; on the % scale 0 is the no-effect control and ±100 the full control effect; nearly all actives have a fitted effect of over 75% in size
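G9a (20 nM) was preincubated 15 min with compound, then reacted 2 h at room temperature with 500 nM biotin-H3K9 peptide and 20 µM SAM. Monomethyl-H3K9 detected by AlphaScreen using anti-H3K9me1 antibody.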
Sfp inh – blocks B. subtilis Sfp PPTase activity | Q9F4F7 | hit rate 3.5% among 310,000 | Potency, µM, without a hit: max response, negative = inhibition, most hits filed as inhibitors | AID 1490 | Biochemical Sfp PPTase activity, qHTS; active means well fitted inhibition curve with a large enough effect; inconclusive means small, poorly fitted or top-dose-only effect, or another doubt; inactive means no such curve, though single readings can be large or run the other way;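 further: the enzyme is Sfp with the accession as filed and its product quenches rhodamine fluorescence; potency means the concentration at half of the fitted maximal effect; 0% = enzyme reaction without inhibitor and -100% = no enzyme wells; top concentration of the series not given in the record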
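With Hepes-Na pH 7.6 buffer containing 10 mM MgCl2, Sfp (15 nM) modified BHQ-2-YbbR (12.5 uM) using rhodamine-CoA (5 uM). Two reads 30 minutes apart at 525/598 nm yielded each well's rate.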
miR-21 reporter – raises the signal of a miR-21 reporter | HeLa miR-21 FLuc reporter, luciferase, 48 h | Potency, µM (highest dose often 38.3 µM), for inactives: at the highest dose reporter change, positive = more light | 340,000 tested, under 10 active | AID 2288; active = well fitted rising curve with a large enough effect; inconclusive = small, poorly fitted or top-dose-only effect; inactive = no such curve, though single readings can be large or run the other way;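 also: % of control where 0% means no effect; miR-21 action dims this reporter so a rising signal means less miR-21 action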
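Compounds were titrated across several concentrations (up to approximately 40 uM) and incubated 48 hours with HeLa miR-21-FLuc reporter cells (miR-21 target sequence downstream of FLuc, endogenous miR-21). Readout was firefly luciferase luminescence after lytic detection reagent.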
ALDH1A1 inh – ALDH1A1 (human) enzyme inhibition; Purified ALDH1A1, NADH fluorescence, propionaldehyde substrate; hit rate 7.3% among 220,000; P00352; Potency, µM (series often up to 75.3 µM), without a hit: at the highest dose activity, negative = inhibition, hits mostly inhibitors; active means well fitted inhibition curve with a large enough effect, not every such curve was filed as active; inconclusive means small, poorly fitted or top-dose-only effect, or another doubt; inactive means no such curve, though single readings can be large or run the other way;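 further: potency means the concentration at half of the fitted maximal effect; plate controls were no enzyme wells and a reference inhibitor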
* hit, by the source's call; ! = not confirmed by another sample; [ ] = remark or other dose. A selection: hits, their analogues and other compounds. The true share with any hit is near 13%. Unless noted, the call rests on the fitted dose curve; in most records, active means well fitted curve in the direction sought with a large enough effect; inconclusive means small, poorly fitted or top-dose-only effect, or another doubt; inactive means no such curve, though single readings can be large; an effect the other way counts as inactive or inconclusive.

What do the screens show for `COc1ccc(C2=CSC3=C(C(=O)c4cccc(S(=O)(=O)N(C)C)c4)CCN23)cc1`?
LMNA splice mod: 5.2%; KDM4E inh: 5.9%; G9a inh: 8.91µM*; Sfp inh: 0.9%; miR-21 reporter: -3.3%; ALDH1A1 inh: 2µM*

Results for CC(C)(C)c1ccc(-c2nc3[nH]c(=O)cc(NC(=O)c4ccco4)n3n2)cc1 ?
G9a inh: 17.4%; Sfp inh: 39.8µM*; miR-21 reporter: -25.9%

What do the screens show for `Cc1ccc(-c2nc3[nH]c(=O)cc(NC(=O)c4cccs4)n3n2)cc1`?
KDM4E inh: -13.2%; G9a inh: -46.5%; Sfp inh: 9.0%; miR-21 reporter: -1.6%

How did O=C(CSc1nc2ccccc2o1)N/N=C/c1ccc(O)c(O)c1 do in these assays?
KDM4E inh: 11.2µM*; G9a inh: inconclusive; Sfp inh: inconclusive; miR-21 reporter: -67.1%

Results for CC1(C)CC(=O)c2cnc(NC(=O)CSc3nc4ccccc4o3)nc2C1 ?
LMNA splice mod: 3.9%; KDM4E inh: -4.2%; G9a inh: 10.9%[59 µM]; Sfp inh: 70.8µM*; miR-21 reporter: -28.0%; ALDH1A1 inh: -13.1%

Results for C/C(=N\NC(=O)CSc1nc2ccccc2o1)c1cccc(O)c1 ?
KDM4E inh: -0.1%; G9a inh: -5.5%; Sfp inh: -11.0%; miR-21 reporter: -16.9%

What do the screens show for `C/C(=N\NC(=O)CSc1nc2ccccc2o1)c1ccc(O)cc1`?
KDM4E inh: -2.2%; G9a inh: 15.8µM*; Sfp inh: inconclusive; miR-21 reporter: -55.8%; ALDH1A1 inh: 23.8µM*

What do the screens show for `Cc1cc(C)nc(SCC(=O)Nc2ncc3c(n2)CC(C)(C)CC3=O)n1`?
LMNA splice mod: 5.6%; KDM4E inh: -1.4%; G9a inh: inconclusive; Sfp inh: -0.3%; miR-21 reporter: 0.1%; ALDH1A1 inh: inconclusive

How did COc1ccc(CNc2ncncc2-c2ccccc2C(F)(F)F)c(OC)c1 do in these assays?
LMNA splice mod: inconclusive; G9a inh: 2.2%[0.501 µM]; Sfp inh: -14.5%; ALDH1A1 inh: -5.1%

How did Cc1cccc(C(=O)OCc2cncs2)c1 do in these assays?
KDM4E inh: 1.0%; Sfp inh: 5.7%; miR-21 reporter: -15.9%; ALDH1A1 inh: 0.7%

How did Clc1ccc(-c2ccccc2)cn1 do in these assays?
G9a inh: 2.5%[2.33 µM]

What do the screens show for `N#Cc1cc(-c2ccccc2)cnc1Cl`?
LMNA splice mod: 1.3%; KDM4E inh: 2.0%; G9a inh: -13.0%[59 µM]; Sfp inh: 5.4%; miR-21 reporter: 2.0%; ALDH1A1 inh: 3.55µM*

How did Cn1ccnc1C(=O)c1ccc(NN)c([N+](=O)[O-])c1 do in these assays?
LMNA splice mod: inconclusive; KDM4E inh: -26.8%; G9a inh: 22.4µM*; Sfp inh: -11.3%; miR-21 reporter: -9.3%; ALDH1A1 inh: inconclusive

How did CC(=O)c1ccc(N2CCN(c3ncnc4c3nc3n4CCCC3)CC2)cc1 do in these assays?
LMNA splice mod: -12.6%[46 µM]; G9a inh: 3.2%[59 µM]; miR-21 reporter: inconclusive

Results for Clc1ccc(OCCCc2nc(-c3ccncc3)no2)c(Cl)c1 ?
LMNA splice mod: 13.9%; KDM4E inh: -2.9%; Sfp inh: -22.4%; miR-21 reporter: -6.7%; ALDH1A1 inh: -3.8%

A draw from above in order of heavy-atom count, highest first:
How did COc1ccc(CNc2ncncc2-c2ccccc2C(F)(F)F)c(OC)c1 do in these assays?
LMNA splice mod: inconclusive; G9a inh: 2.2%[0.501 µM]; Sfp inh: -14.5%; ALDH1A1 inh: -5.1%

What do the screens show for `Cc1ccc(-c2nc3[nH]c(=O)cc(NC(=O)c4cccs4)n3n2)cc1`?
KDM4E inh: -13.2%; G9a inh: -46.5%; Sfp inh: 9.0%; miR-21 reporter: -1.6%

Results for Clc1ccc(OCCCc2nc(-c3ccncc3)no2)c(Cl)c1 ?
LMNA splice mod: 13.9%; KDM4E inh: -2.9%; Sfp inh: -22.4%; miR-21 reporter: -6.7%; ALDH1A1 inh: -3.8%

Next section
How did Clc1ccc(OCCCc2nc(-c3cccnc3)no2)c(Cl)c1 do in these assays?
LMNA splice mod: inconclusive; KDM4E inh: -19.4%; G9a inh: 137.2%; Sfp inh: 31.6µM*; miR-21 reporter: -16.3%; ALDH1A1 inh: 3.5%

How did CCN(CC(=O)NCc1cccs1)C(=O)c1ccc(S(=O)(=O)Nc2ccccc2Cl)cc1 do in these assays?
G9a inh: 16.9%[12.7 µM]

Results for CC(=O)c1ccc(OC2C(O)COC2/C=C/c2ccc(Cl)cc2)cc1 (stereo not drawn) ?
Sfp inh: 3.6%; ALDH1A1 inh: 3.98µM*!

What do the screens show for `O=C1C=CC(=O)N1Cc1ccccc1`?
G9a inh: 1.78µM*; Sfp inh: 17.8µM*; miR-21 reporter: inconclusive

Results for CCc1ccc(/C=C/c2c[nH]c3ccccc23)[n+](CC)c1 ?
LMNA splice mod: inconclusive; KDM4E inh: inconclusive; G9a inh: 7.08µM*; Sfp inh: -49.1%; miR-21 reporter: inconclusive; ALDH1A1 inh: -5.5%

What do the screens show for `CC1=C(c2ccc(C)c(C)c2)S(=O)(=O)N=C1N1CCN(c2cccc(C(F)(F)F)c2)CC1`?
G9a inh: -31.0%[59 µM]; miR-21 reporter: -12.8%

Results for COc1ccc(C(=O)N2C(=S)NC(=O)/C2=C\c2ccc(C)cc2)cc1 ?
LMNA splice mod: -29.0%; KDM4E inh: 0.1%; G9a inh: -0.6%[59 µM]; Sfp inh: 50.1µM*; miR-21 reporter: -33.0%; ALDH1A1 inh: inconclusive

Results for O=C(NCc1ccccc1Cl)NCc1noc2ccccc12 ?
G9a inh: 9.5%[59 µM]; miR-21 reporter: -44.5%

Results for C=CCNC(=S)NNc1nc2c(c(=O)[nH]1)C1(CCCCC1)Cc1ccccc1-2 ?
LMNA splice mod: -17.3%; KDM4E inh: inconclusive; G9a inh: 14.1µM*; Sfp inh: inconclusive; miR-21 reporter: 10.9%; ALDH1A1 inh: 12.6µM*

How did COc1cc(NS(=O)(=O)c2ccc3c(c2)CC(=O)N3)cc(OC)c1OC do in these assays?
G9a inh: 0.355µM*; miR-21 reporter: -4.3%

Results for NC(=O)CC(NC(=O)Cc1ccc(Br)cc1)c1ccc(N2CCC(N3CCCC3)CC2)c([N+](=O)[O-])c1 (stereo not drawn) ?
G9a inh: inconclusive; Sfp inh: 13.3%; miR-21 reporter: -4.9%

Results for O=C(Nc1ccc(Cl)cc1)N1CCN(c2ccccc2)CC1 ?
LMNA splice mod: -6.1%; KDM4E inh: 2.3%; G9a inh: 8.2%[59 µM]; Sfp inh: -10.4%; miR-21 reporter: -21.9%; ALDH1A1 inh: 1.6%

Results for O=C(Nc1ccc(Cl)cc1)N1CCC(CO)(Cc2ccccc2)CC1 ?
LMNA splice mod: inconclusive; KDM4E inh: -14.2%; G9a inh: 9.1%; Sfp inh: 7.9%; miR-21 reporter: 15.3%; ALDH1A1 inh: 12.6µM*

What do the screens show for `CC(=O)Nc1ccc(NC(=O)C(C)Sc2n[nH]c(-c3ccc(C)cc3)n2)cc1` (stereo not drawn)?
G9a inh: 39.8µM*

What do the screens show for `Cc1ccc(-c2nc(SC(C)C(=O)c3c(N)n(C)c(=O)n(C)c3=O)n[nH]2)cc1` (stereo not drawn)?
G9a inh: 44.7µM*

Results for COc1ccc(CC(=S)N2CCOCC2)cc1OC ?
LMNA splice mod: 17.6%; KDM4E inh: 0.9%; G9a inh: -22.3%[12.7 µM]; Sfp inh: 17.2%; miR-21 reporter: -4.0%; ALDH1A1 inh: 10.5%
